Literature values in paper PMC3741332.

Details: administered orally as the pro-drug oseltamivir phosphate; background statement, no reference given

SMILES: CCOC(=O)C1=C[C@@H](OC(CC)CC)[C@H](NC(C)=O)[C@@H](N)C1
- share of a given dose that reaches the blood circulation as OC: At least 75%
